Reference: ChEMBL document CHEMBL1158639, “Synthesis and in vivo evaluation of [11C]MPTQ: a potential PET tracer for alpha2A-adrenergic receptors” (Bioorg Med Chem Lett, 2010)

Experiment: Selectivity for adrenergic alpha2A receptor over 5HTT receptor

Selectivity ratio: 10
SMILES: CN1CC2C(=NO[C@H]2CN2CCN(C/C=C/c3ccccc3)CC2)c2ccccc21 (stereo partly specified)
